We go through one compound from ChEMBL document CHEMBL1128729, “Alpha- and beta-adrenoceptors: from the gene to the clinic. 2. Structure-activity relationships and therapeutic applications” (J Med Chem, 1995).

By UniProt entry, the sequences of proteins in these tests, tags left out.
UniProt P22002, whole entry: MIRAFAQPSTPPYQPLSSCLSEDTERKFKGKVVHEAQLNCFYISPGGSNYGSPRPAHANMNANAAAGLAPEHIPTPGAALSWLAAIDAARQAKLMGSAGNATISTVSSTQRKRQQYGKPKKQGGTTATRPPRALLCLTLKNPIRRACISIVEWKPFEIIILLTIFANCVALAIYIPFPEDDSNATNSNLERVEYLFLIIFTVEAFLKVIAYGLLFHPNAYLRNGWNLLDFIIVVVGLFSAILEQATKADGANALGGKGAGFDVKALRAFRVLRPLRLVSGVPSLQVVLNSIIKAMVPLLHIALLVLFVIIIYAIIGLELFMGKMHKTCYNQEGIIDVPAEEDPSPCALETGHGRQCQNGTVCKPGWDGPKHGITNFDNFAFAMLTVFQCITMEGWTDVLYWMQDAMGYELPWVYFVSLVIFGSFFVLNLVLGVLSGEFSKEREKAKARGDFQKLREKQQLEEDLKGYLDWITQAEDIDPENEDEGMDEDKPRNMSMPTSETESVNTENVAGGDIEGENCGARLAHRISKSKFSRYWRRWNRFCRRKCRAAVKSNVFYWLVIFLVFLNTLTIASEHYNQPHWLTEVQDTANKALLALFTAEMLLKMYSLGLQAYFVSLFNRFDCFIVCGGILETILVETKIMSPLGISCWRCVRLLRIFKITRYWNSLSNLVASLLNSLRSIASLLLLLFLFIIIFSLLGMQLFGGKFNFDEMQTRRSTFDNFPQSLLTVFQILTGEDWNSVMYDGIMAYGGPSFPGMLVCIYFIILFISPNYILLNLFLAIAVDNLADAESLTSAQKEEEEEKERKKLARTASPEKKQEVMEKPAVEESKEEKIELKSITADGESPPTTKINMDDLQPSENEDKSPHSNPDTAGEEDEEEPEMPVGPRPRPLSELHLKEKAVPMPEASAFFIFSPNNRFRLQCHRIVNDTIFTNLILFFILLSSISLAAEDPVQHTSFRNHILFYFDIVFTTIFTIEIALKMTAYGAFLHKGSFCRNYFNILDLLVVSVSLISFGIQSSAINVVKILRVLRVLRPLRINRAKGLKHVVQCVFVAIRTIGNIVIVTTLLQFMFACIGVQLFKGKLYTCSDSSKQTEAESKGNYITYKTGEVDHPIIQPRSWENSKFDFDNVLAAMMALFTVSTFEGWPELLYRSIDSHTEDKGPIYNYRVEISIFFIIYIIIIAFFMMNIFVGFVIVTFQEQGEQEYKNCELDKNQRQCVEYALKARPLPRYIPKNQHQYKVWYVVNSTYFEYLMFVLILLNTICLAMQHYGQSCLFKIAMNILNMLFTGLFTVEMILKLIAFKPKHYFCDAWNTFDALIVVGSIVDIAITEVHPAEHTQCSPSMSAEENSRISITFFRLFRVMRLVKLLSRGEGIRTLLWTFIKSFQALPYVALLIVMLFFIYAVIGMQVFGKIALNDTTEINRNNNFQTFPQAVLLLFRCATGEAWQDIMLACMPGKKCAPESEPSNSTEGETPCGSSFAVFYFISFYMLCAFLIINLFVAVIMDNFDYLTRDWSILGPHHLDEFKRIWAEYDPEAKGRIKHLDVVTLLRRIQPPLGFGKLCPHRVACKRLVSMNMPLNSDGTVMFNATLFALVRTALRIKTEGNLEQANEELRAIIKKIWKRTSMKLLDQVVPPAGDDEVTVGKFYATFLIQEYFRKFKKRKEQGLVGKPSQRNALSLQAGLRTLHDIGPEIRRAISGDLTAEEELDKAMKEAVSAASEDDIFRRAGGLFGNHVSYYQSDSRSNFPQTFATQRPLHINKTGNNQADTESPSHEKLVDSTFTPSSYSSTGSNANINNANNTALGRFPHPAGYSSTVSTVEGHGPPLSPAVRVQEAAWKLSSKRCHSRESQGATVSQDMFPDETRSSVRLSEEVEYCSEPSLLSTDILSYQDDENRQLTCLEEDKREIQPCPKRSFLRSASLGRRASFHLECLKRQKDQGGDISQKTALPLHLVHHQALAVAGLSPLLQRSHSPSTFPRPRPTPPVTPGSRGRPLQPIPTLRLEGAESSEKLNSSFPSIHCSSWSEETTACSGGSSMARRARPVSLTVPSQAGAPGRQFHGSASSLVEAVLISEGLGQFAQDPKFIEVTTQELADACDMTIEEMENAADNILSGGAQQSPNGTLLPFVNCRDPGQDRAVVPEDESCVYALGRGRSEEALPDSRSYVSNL

Structures are written as SMILES.

The assay has as its target Voltage-dependent L-type calcium channel subunit alpha-1C (Rattus norvegicus, UniProt P22002). The assay is described as follows: biochemical.

Take `COC(=O)C1=C(C)NC(C)=C(C(=O)OCCCN2CCC(c3ccccc3)(c3ccccc3)CC2)[C@H]1c1cccc([N+](=O)[O-])c1` [NIGULDIPINE]: the Ki came out at 9 nM.
